These results are taken from patent publication US20170239310A1 (published 2017).

The data set is described as follows: in vivo. The settings on record: rat, blood, po, 100 mg/kg.

`CN(C)C(=N)N=C(N)N` [Metformin, metformin] had an area under the curve AUC(0-inf) of 33 µg·h/mL.
